Experimental data published in ChEMBL document CHEMBL1144903, “Generation of predictive pharmacophore models for CCR5 antagonists: study with piperidine- and piperazine-based compounds as a new class of HIV-1 entry inhibitors” (J Med Chem, 2003).

Chains of the proteins cited; added tags and fusions are not shown.
UniProt P51681, whole entry: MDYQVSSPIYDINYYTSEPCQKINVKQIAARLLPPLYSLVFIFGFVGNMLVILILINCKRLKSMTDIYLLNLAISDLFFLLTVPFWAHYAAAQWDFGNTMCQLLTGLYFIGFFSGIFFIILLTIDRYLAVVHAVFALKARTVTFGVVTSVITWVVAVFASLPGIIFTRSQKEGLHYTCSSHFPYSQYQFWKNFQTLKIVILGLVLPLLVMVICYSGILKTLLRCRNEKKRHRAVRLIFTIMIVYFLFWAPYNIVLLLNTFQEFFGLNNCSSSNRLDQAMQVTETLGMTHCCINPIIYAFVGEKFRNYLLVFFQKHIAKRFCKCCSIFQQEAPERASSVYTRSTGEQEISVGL

Target: C-C chemokine receptor type 5 (Homo sapiens, UniProt P51681)
Assay: Inhibition of RANTES binding to the human C-C chemokine receptor type 5 (CCR5)

Row | Ki | SMILES
1 | 0.4 nM | CCO/N=C(/c1ccc(Br)cc1)C1CCN(C2(C)CCN(C(=O)c3c(Cl)cncc3Cl)CC2)CC1
2 | 0.3 nM | CCO/N=C(/c1ccc(Br)cc1)C1CCN(C2(C)CCN(C(=O)c3c(Br)cncc3Br)CC2)CC1
